Assay results published in patent US6534289B1, “Nucleic acids encoding mGLuR/CaR chimera” (NPS Pharmaceuticals, Inc., priority 1995, dated 2003).

The chains behind the UniProt entries cited, without tags or fusion partners. Where a name states a change or a piece, a line headed by the entry shows the natural chain unless it says otherwise. A line that says so, or that is headed by a name, gives the form on record, which may keep a tag or linker.
mGluR1/CaR (UniProt P23385+P41180), UniProt P23385+P41180, fused: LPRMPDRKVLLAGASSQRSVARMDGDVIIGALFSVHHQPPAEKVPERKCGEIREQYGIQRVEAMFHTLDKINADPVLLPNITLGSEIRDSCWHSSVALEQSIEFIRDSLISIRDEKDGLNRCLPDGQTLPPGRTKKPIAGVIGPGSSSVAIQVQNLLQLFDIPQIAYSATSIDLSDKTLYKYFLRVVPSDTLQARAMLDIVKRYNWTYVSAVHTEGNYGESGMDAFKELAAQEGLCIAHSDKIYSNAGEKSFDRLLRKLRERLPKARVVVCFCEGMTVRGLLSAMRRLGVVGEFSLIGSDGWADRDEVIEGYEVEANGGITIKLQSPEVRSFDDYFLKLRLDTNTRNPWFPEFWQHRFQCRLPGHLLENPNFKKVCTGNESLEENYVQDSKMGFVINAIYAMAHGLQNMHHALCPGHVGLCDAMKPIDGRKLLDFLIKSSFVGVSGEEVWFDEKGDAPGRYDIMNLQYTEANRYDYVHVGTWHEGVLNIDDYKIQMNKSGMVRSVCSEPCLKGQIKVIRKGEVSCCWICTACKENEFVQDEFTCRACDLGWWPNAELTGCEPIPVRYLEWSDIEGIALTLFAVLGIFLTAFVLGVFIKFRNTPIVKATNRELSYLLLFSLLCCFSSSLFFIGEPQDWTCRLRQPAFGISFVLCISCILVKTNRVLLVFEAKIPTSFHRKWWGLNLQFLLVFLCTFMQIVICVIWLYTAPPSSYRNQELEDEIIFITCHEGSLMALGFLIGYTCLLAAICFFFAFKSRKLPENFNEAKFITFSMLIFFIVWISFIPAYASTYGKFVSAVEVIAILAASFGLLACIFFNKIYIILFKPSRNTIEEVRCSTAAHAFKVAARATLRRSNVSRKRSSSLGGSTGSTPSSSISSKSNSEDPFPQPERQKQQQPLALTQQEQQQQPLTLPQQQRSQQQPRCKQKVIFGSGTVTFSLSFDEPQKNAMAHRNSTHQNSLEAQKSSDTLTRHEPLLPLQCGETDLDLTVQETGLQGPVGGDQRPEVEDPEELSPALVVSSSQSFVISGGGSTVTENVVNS
ratCH3 (UniProt P23385+P41180), UniProt P23385+P41180, fused: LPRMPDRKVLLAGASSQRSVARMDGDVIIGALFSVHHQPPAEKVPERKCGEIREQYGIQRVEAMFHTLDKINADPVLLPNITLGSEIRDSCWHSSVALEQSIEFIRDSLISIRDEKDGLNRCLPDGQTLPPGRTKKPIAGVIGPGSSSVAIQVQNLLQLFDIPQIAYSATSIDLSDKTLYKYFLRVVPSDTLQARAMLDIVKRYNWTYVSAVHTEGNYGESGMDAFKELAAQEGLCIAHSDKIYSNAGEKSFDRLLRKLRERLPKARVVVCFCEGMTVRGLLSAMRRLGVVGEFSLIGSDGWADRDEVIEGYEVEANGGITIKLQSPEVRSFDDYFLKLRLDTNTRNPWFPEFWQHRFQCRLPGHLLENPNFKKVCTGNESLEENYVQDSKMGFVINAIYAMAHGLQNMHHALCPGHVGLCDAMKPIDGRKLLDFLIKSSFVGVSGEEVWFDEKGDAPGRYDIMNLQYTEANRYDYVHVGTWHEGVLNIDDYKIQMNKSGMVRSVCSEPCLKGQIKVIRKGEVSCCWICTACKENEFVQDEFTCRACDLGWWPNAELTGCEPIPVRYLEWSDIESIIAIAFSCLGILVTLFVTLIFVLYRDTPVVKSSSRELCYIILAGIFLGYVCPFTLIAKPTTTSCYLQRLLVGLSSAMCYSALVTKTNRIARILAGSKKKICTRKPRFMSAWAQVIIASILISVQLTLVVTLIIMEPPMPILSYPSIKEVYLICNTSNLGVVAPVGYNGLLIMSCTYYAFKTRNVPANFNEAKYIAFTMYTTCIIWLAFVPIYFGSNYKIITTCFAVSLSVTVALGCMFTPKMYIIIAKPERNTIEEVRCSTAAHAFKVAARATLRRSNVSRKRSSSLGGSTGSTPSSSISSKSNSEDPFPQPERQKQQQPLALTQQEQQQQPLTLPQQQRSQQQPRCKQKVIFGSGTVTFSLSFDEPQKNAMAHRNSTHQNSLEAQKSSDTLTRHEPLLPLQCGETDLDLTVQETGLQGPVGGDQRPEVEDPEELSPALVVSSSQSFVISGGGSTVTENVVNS
UniProt P23385: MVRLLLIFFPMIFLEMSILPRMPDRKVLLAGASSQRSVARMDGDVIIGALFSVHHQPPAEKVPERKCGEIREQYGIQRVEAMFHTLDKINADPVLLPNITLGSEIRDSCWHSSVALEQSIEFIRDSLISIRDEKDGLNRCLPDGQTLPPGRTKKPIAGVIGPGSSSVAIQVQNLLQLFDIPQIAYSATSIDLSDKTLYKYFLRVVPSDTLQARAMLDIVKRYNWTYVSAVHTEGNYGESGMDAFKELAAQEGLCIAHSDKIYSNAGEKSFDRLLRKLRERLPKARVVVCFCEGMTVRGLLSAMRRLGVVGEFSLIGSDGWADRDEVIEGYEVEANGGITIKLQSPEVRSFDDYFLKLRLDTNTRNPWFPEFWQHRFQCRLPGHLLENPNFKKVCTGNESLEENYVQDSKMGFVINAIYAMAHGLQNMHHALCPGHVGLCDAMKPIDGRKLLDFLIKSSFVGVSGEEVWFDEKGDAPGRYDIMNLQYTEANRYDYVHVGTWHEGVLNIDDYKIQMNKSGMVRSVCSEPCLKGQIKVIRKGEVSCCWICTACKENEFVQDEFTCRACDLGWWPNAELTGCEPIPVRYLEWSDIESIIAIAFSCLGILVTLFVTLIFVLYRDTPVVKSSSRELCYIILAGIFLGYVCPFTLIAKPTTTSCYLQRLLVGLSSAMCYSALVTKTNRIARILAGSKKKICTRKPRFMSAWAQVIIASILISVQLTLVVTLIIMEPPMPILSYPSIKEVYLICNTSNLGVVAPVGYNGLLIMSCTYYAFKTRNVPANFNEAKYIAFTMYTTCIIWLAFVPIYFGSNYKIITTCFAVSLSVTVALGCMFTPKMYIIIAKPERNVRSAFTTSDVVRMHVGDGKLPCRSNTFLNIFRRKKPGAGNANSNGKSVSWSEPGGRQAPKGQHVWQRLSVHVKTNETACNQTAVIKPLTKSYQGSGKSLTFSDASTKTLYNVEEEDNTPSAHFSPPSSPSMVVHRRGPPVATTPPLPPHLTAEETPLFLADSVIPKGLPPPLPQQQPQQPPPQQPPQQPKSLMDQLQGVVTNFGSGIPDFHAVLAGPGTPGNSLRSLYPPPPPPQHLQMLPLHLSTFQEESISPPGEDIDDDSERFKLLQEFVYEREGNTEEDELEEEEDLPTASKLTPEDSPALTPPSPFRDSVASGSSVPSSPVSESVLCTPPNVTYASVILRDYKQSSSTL
UniProt P41180: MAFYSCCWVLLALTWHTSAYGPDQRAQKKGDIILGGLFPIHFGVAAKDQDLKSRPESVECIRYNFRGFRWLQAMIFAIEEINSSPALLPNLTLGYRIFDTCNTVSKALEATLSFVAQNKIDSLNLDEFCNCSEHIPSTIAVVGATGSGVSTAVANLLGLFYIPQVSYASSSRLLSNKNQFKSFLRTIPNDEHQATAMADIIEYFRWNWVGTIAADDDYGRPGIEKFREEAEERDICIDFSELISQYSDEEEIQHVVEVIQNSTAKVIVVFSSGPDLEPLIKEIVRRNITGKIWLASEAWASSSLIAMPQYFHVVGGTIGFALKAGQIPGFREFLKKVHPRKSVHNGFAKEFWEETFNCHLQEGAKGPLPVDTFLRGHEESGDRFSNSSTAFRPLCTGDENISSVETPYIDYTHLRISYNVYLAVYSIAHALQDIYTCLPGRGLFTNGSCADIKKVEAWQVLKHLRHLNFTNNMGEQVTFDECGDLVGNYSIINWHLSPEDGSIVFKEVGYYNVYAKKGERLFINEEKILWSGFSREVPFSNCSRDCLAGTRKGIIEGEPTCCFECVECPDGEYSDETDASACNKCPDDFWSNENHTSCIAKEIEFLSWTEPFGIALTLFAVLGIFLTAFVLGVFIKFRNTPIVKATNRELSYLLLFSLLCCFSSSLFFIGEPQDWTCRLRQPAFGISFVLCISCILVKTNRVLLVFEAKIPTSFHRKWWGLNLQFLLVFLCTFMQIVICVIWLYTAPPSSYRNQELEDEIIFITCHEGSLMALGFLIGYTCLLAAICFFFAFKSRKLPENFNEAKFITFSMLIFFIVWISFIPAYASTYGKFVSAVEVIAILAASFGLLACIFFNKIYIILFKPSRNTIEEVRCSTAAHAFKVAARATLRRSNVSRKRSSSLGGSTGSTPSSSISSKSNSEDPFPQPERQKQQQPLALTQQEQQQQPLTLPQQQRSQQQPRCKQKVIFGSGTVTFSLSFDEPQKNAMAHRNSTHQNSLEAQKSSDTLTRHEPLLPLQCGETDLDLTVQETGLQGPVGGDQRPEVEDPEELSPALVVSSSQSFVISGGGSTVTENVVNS

Key:
mGluR1/CaR = target: T1, mGluR1/CaR (UniProt P23385+P41180); assay: Xenopus oocyte voltage clamp, Cl− currents, mGluR1/CaR chimera; assay type: cell-based, rat mGluR1 / human calcium receptor; details: FIG. 6
T1 construct: expressed in transfected cells; host or cells: Xenopus laevis oocytes injected with in vitro transcribed RNA

ratCH3 = target: T2, ratCH3 (UniProt P23385+P41180); assay: Xenopus oocyte voltage clamp, Cl− currents, ratCH3 chimera; assay type: cell-based, rat mGluR1 / human calcium receptor; details: Xenopus oocytes injected with ratCH3 RNA, FIG. 8C
T2 construct: expressed in transfected cells; host or cells: Xenopus laevis oocytes injected with in vitro transcribed RNA

N[C@@H](CCC(=O)O)C(=O)O [l-glutamate]
activation of mGluR1/CaR as measured by Cl− currents generated in response to the release of intracellular Ca^2+ (mGluR1/CaR): activation
Cl− current (ratCH3): elicits oscillatory increases in Cl− current
